This is a selection; strong and weak results do not stand in their true shares. Some results for these compounds are left out of this collection, so the calls shown say nothing about other tests. Calls of active or inactive are those of the source.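 How the source made its calls: active means activation above its plate's cutoff, the mean activation of test wells on that plate plus 3 SD (cut at about 19% in these data); inactive means the rest.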

The subject of the experiment is transient receptor potential cation channel N1 (TRPN1/NompC), Danio rerio. Kind of experiment: zebrafish TRPN1 channel agonists, primary screen, cell-based, HEK293, calcium fluorescence (AID 1424).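 Further: 0% = DMSO alone and 100% = 87 µM carbachol.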 The following applies: HEK293 zebrafish TRPN1-YFP, Fluo-8 calcium fluorescence; at 3 µM; stronger effect = higher value; 100% = response to 87 µM carbachol. Put shortly:
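Control set: carbachol 87 µM as high control, DMSO as low control; system: HEK293 stable line with zebrafish TRPN1-YFP; read-out: % activation versus carbachol response; detection: intracellular calcium fluorescence with Fluo-8; doses: single test compound dose, 3 µM nominal, 0.3% DMSO; schedule: dye 1 h 37 °C plus 30 min RT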
With `CCN1CCCC(OC(=O)C2(O)c3ccccc3C=Cc3ccccc32)C1` (stereo unspecified), the activation was inactive: -0.31%.

As for `C=CCN1CCN(CCOC(=O)C(O)(c2ccccc2)c2ccccc2)CC1`, the activation was inactive: 0.61%.

For the compound `CN(C)C1CCCC1OC(=O)C(O)(c1ccccc1)c1ccccc1` (stereo unspecified), the activation was inactive: -0.58%.

Turning to `Cc1ccccc1C(=O)NCC1(N2CCCCC2)CCCCC1`, the activation is inactive: -0.35%.

`CC(C)N1C(=O)CC2(CCN(CCOC(=O)C(O)(c3ccccc3)c3ccccc3)CC2)C1=O`: the activation was inactive: 0.24%.

With `CCN(CC)CC(C)C(C)OC(=O)C(O)(c1ccccc1)c1ccccc1` (stereo unspecified), the activation is inactive: -0.28%.

`O=C(NCC1(N2CCCCC2)CCCCC1)c1cc([N+](=O)[O-])ccc1Cl`: the activation was inactive: 0.93%.

Turning to `CN(C)c1cccc(C(=O)NCC2(N(C)C)CCCCC2)c1`, the activation is inactive: 1.78%.

Regarding `COc1ccc(Br)c(C(=O)NCC2(N3CCCCC3)CCCCC2)c1`, the activation is inactive: 1.24%.

For `O=C(OC1CN2CCC1CC2)C(CO)(c1ccccc1)c1ccccc1` (stereo unspecified), the activation is inactive: 3.11%.

On to `COc1cccc(C(=O)NCC2(N3CCCCC3)CCCCC2)c1`, for which the activation is inactive: 0.71%.

(Values after PubChem BioAssay AID1424 (The Scripps Research Institute Molecular Screening Center, 2008).)
